Reference: patent US5811442A, “Pharmaceutical compositions for the treatment of conditions associated with decreased blood flow” (priority 1997, dated 1998)
pKi: −log10 of the molar value. Read-outs that look alike come from different tables or passages of the source.

Amino acid sequences for entries named in this document (tags omitted). Residues count along the entry.
UniProt P09483, 31-630: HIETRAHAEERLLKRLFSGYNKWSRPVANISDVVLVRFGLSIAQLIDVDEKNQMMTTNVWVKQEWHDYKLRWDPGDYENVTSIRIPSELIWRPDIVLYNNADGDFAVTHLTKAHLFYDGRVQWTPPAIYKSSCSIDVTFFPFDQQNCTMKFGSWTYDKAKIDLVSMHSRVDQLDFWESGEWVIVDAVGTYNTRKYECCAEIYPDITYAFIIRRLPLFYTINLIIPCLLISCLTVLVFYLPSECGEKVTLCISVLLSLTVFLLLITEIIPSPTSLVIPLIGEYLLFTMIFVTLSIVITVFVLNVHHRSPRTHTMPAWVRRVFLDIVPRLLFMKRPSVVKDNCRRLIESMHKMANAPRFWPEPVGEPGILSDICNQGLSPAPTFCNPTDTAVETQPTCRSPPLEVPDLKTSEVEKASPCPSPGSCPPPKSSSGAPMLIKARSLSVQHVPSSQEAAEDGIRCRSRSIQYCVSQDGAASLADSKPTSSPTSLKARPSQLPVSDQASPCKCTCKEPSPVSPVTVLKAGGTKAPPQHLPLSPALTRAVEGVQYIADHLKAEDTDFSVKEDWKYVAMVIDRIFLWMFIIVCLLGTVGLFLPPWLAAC
UniProt P12390, 25-500: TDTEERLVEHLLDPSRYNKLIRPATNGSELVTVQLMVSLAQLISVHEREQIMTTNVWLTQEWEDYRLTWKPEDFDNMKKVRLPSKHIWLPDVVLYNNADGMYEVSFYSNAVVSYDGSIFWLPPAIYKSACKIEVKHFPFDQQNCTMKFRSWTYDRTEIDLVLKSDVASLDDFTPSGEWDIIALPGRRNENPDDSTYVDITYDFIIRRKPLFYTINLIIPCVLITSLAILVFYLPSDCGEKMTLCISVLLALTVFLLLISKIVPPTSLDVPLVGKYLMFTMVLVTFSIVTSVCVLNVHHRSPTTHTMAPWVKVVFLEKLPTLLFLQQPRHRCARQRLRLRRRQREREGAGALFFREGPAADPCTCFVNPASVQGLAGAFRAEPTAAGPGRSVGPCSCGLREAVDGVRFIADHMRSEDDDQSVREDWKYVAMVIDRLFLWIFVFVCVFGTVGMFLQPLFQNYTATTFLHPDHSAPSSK

Target: T1, α4β2 receptor subtypes (Rattus norvegicus, UniProt P09483+P12390)
T1 construct: from tissue
Assay: Determination of Binding to Relevant Receptor Sites
Excerpt: Receptor binding constants provide a measure of the ability of the compound to bind to relevant receptor sites of certain cells of the patient.
Determination of Binding to Relevant Receptor Sites

Question: With COc1cncc(/C=C/CCN)c1 [Sample No. 4, (E)-4-[3-(5-methoxypyridin)yl]-3-buten-1-amine monofumarate] as the compound, how does the pKi (calculated from IC50 values using the method of Cheng et al., read-out: Ki) read?
Answer: 6.82

Question: With CNCC/C=C/c1cncnc1 [Sample No. 11, (E)-N-methyl-4-(5-pyrimidinyl)-3-buten-1-amine] as the compound, how does the pKi read?
Answer: 7.07
